In PubChem BioAssay AID624256 (NMMLSC, 2012) one finds normalized GFP-positive differentiation data, which are given here for two compounds.

The list shows a part of the results, in another mix than the full data. Activity calls are given as the source filed them.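 Rule for the calls: active = normalized GFP-positive differentiation at or above the plate's own cutoff, the solvent-only control mean plus 3 SD; inconclusive = no clear call, values can overlap the other calls; inactive = the rest.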

A short description of this test: induction of myeloid progenitor differentiation, primary screen, cell-based, flow cytometry, MLPCN library (AID 624256).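 Note: cells exposed to compound for four days before flow analysis; 0% = DMSO wells and 100% = fulvestrant positive control at 5 µM.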 The settings on record: ER-HoxA9 myeloid progenitors, lysozyme-GFP differentiation, at 10 µM, active compounds read high.
With `Cc1cc(SC(NC(=O)c2ccccc2)C(Cl)(Cl)Cl)nc(C(C)C)n1` (configuration not stated), the normalized GFP-positive differentiation was active: 25.2%.
In the case of `O=[N+]([O-])c1cc([N+](=O)[O-])c(CCNc2ccccc2)c([N+](=O)[O-])c1`, the normalized GFP-positive differentiation was active: 96.4%.
